Reference: patent US12600705B2, “Heat shock protein modulators and anti-Huntington disease therapeutic agents” (UNIVERSITY OF PITTSBURGH-OF THE COMMONWEALTH SYSTEM OF …, priority 2020, dated 2026)

The chains behind the UniProt entries cited, without tags or fusion partners. Where a name states a change or a piece, a line headed by the entry shows the natural chain unless it says otherwise.
UniProt P56524: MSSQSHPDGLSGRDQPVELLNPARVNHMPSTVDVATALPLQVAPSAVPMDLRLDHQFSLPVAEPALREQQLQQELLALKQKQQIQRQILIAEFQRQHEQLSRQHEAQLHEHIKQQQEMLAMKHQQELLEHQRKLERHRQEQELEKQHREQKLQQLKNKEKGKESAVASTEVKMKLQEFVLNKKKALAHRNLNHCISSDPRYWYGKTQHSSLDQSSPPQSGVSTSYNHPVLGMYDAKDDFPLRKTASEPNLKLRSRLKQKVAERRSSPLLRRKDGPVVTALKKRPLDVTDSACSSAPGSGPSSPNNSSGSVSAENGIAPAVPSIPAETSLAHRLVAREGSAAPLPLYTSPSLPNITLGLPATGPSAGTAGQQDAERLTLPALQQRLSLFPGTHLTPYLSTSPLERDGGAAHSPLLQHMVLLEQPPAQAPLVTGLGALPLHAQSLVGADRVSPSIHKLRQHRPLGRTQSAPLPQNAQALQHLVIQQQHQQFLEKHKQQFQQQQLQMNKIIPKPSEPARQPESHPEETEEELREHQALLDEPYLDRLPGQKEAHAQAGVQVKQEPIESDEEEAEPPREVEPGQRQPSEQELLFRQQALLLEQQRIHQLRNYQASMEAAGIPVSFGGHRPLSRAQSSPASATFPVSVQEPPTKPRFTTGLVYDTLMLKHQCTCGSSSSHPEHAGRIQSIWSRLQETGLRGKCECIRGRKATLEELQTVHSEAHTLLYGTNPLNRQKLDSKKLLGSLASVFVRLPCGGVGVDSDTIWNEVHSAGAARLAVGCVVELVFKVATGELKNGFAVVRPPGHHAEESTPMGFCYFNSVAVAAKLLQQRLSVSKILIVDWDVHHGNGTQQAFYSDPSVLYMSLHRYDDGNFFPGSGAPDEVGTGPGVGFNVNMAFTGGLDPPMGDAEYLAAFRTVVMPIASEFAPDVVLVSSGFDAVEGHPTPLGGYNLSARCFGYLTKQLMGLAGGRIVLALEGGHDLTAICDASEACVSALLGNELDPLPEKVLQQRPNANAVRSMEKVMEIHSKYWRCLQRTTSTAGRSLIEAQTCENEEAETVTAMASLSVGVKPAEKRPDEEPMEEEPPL
UniProt Q9UQL6: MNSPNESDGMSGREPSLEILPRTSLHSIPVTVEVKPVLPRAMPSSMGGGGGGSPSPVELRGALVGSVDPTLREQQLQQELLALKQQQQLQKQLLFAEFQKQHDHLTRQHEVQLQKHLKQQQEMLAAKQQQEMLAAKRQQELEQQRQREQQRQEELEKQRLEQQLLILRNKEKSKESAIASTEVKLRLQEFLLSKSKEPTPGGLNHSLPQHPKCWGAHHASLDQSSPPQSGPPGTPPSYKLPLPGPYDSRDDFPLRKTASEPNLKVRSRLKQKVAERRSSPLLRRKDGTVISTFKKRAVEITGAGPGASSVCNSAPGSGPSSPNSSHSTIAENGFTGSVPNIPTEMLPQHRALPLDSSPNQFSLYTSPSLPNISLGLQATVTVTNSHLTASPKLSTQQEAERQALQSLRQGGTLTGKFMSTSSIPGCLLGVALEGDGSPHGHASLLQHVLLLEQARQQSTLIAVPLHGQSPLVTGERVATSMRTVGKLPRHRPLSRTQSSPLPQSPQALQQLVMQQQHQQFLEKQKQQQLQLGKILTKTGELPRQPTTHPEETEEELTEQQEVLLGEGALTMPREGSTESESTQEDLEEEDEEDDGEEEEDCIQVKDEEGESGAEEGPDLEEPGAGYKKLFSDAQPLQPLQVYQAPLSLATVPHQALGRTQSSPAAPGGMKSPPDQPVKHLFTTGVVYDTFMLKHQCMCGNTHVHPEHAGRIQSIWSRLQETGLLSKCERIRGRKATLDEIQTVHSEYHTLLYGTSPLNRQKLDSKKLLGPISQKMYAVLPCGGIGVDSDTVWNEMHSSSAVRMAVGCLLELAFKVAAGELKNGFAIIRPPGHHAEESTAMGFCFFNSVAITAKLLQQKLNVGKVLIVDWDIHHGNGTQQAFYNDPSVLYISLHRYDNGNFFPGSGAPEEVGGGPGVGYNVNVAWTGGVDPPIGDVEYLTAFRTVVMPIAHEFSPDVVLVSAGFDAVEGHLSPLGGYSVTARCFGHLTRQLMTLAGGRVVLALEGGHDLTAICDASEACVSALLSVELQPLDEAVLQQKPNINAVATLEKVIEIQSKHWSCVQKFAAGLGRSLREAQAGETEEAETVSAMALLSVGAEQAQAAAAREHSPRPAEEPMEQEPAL

Experiments:
[1] = molecular target: HDAC 4 human recombinant enzyme (Homo sapiens, UniProt P56524); assay: HDAC 4 assay (BPS Bioscience kit)
HDAC 8 = molecular target: T1, HDAC 8 (Homo sapiens, UniProt Q9BY41); assay: HDAC 8 assay (BPS Bioscience kit)
T1 sequence (Q9BY41 1-377): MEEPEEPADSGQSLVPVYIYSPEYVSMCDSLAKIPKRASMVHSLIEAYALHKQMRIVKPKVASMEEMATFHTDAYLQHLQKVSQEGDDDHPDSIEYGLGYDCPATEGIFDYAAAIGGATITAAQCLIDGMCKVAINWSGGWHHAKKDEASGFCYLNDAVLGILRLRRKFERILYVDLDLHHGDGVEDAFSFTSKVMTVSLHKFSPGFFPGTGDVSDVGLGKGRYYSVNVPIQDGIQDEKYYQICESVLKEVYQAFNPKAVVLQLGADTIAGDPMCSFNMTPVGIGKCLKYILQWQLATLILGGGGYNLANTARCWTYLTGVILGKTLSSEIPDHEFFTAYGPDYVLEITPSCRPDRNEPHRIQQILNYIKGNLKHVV

HDAC 5 = HDAC 5 (Homo sapiens, UniProt Q9UQL6); assay: HDAC 5 assay (BPS Bioscience kit)

- Percent Inhibition ([1]; HDAC 4, standard at 0.5 uM): NIA
- Percent Inhibition ([1]; HDAC 4, standard at 1 uM): 17%
- Percent Inhibition ([1]; HDAC 4, standard at 3 uM): 35%
- Percent Inhibition ([1]; HDAC 4, standard at 7 uM): 67%
- Percent Inhibition ([1]; HDAC 4, standard at 10 uM): 77%
- Percent Inhibition (HDAC 8; 0.01 µM): 51%
- Percent Inhibition (HDAC 8; 0.1 µM): 67%
- Percent Inhibition (HDAC 8; 1 µM): 80%
- Percent Inhibition (HDAC 8; 5 µM): 87%
- Percent Inhibition (HDAC 8; 10 µM): 97%
- Percent Inhibition (HDAC 5; HDAC 5, standard at 0.2 uM): NIA
- Percent Inhibition (HDAC 5; HDAC 5, standard at 0.5 uM): 20%
- Percent Inhibition (HDAC 5; HDAC 5, standard at 1 uM): 41%
- Percent Inhibition (HDAC 5; HDAC 5, standard at 2 uM): 63%
- Percent Inhibition (HDAC 5; HDAC 5, standard at 5 uM): 73%
- Percent Inhibition (HDAC 5; HDAC 5, standard at 10 uM): 85%
Structure (SMILES): CC(/C=C/C(=O)NO)=C\[C@@H](C)C(=O)c1ccc(N(C)C)cc1 [TSA, Trichostatin A]
